According to PubChem BioAssay (NCI):
Only a part is listed here, and it is no random draw.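 A percent growth of 40 corresponds to 60% growth inhibition; 0 means no net growth; -100 means all cells died. Active threshold: below 10.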 Calls of active or inactive are those of the source.

Experiments:
Assay in all cases: NCI-60 one-dose screen, 48 h (100 = growth as untreated, 0 = no growth, -100 = all killed)
Settings in all cases: 10 µM unless noted
[1] = test system: NCI-H23 lung
[2] = test system: NCI-H226 lung
[3] = test system: HOP-62 NSCLC
[4] = test system: NCI-H460 lung
[5] = test system: HOP-92 NSCLC
[6] = test system: NCI-H522 lung
[7] = test system: A549/ATCC NSCLC
[8] = test system: 786-0 renal
[9] = test system: COLO 205 colon
[10] = test system: DU-145 prostate
[11] = test system: K-562 leukemia
[12] = test system: MALME-3M melanoma
[13] = test system: MDA-MB-231 breast
[14] = test system: RXF 393 renal
[15] = test system: SF-268 CNS
[16] = test system: SF-295 CNS
[17] = test system: SF-539 CNS
[18] = test system: UACC-257 melanoma
[19] = test system: M14 melanoma
[20] = test system: NCI-H322M lung

Row | SMILES | growth [1] | growth [2] | growth [3] | growth [4] | growth [5] | growth [6] | growth [7] | growth [8] | growth [9] | growth [10] | growth [11] | growth [12] | growth [13] | growth [14] | growth [15] | growth [16] | growth [17] | growth [18] | growth [19] | growth [20]
1 | CCN(CCI)Cc1cccc2ccccc12 | inactive: 97.1% | inactive: 98.7% | inactive: 97.1% | inactive: 103% | inactive: 94.9% | inactive: 94.5% | inactive: 101% | inactive: 102% | inactive: 102% | inactive: 104% | inactive: 104% | inactive: 102% | inactive: 102% | inactive: 109% | inactive: 101% | inactive: 93.7% | inactive: 103% | inactive: 102% | inactive: 101% | 
2 | Cc1ccc(Sc2ccc([N+](=O)[O-])cc2[N+](=O)[O-])c([N+](=O)[O-])c1 |  | active: -20.3% | inactive: 28.4% | inactive: 74.4% | active: -7.35% | active: -31.2% | inactive: 15.7% | active: 8.51% | active: -5.45% | active: -8.75% | active: 7.74% | inactive: 75.3% | inactive: 31.9% | inactive: 23.2% | inactive: 32.6% | active: 3.73% | inactive: 14.2% | active: -25% | active: 1.56% | inactive: 88.2%
3 | O=P1(Nc2ncccn2)OC(CCl)=NC1c1ccc(C2N=C(CCl)OP2(=O)Nc2ncccn2)cc1 (stereo not given) |  |  |  |  |  |  |  |  |  |  |  |  |  | inactive: 101% |  |  |  |  |  | 
4 | COP(=O)(OC)N1CC1c1ccccc1 (stereo not given) | inactive: 93.8% | inactive: 101% | inactive: 108% |  | inactive: 106% | inactive: 108% | inactive: 100% | inactive: 91.9% | inactive: 116% | inactive: 132% | inactive: 111% | inactive: 122% | inactive: 92.8% | inactive: 106% | inactive: 118% | inactive: 99.1% | inactive: 114% | inactive: 105% | inactive: 101% | 
5 | OC(CNCCCl)C(O)C(O)C(O)CNCCCl (stereo not given) | inactive: 115% |  | inactive: 105% | inactive: 88.6% | inactive: 99.2% | inactive: 101% | inactive: 94.2% | inactive: 106% | inactive: 107% | inactive: 99.7% | inactive: 98.9% | inactive: 93.1% | inactive: 101% | inactive: 97.4% | inactive: 103% |  | inactive: 92.2% | inactive: 93.7% | inactive: 93.2% | inactive: 105%
6 | O=[As]c1ccc(S(=O)(=O)Nc2ccccc2)cc1 (stereo not given) | inactive: 70.4% | inactive: 92.8% | inactive: 110% | inactive: 104% |  | active: -64% | inactive: 104% |  | active: -31.2% | inactive: 90.6% | active: -16.2% | active: -65.9% | inactive: 27.3% | active: -19.6% | inactive: 62.7% | inactive: 105% | inactive: 19.9% | inactive: 19.8% | inactive: 72.1% | inactive: 106%
7 | COC(=O)C1(C)COP(=O)(N2CCCCCC2)OC1 (stereo not given) | inactive: 97.7% | inactive: 111% |  | inactive: 113% |  | inactive: 100% | inactive: 104% | inactive: 104% | inactive: 109% | inactive: 101% | inactive: 85.7% | inactive: 105% | inactive: 112% | inactive: 118% | inactive: 106% | inactive: 103% | inactive: 110% | inactive: 113% | inactive: 98.9% | inactive: 110%
8 | C/C(N)=N\P(=O)(OCc1ccccc1)OCc1ccccc1 | inactive: 97.7% |  | inactive: 105% | inactive: 108% | inactive: 102% | inactive: 100% | inactive: 95.6% | inactive: 103% | inactive: 111% | inactive: 125% | inactive: 103% |  | inactive: 103% | inactive: 105% | inactive: 114% | inactive: 84.5% | inactive: 102% | inactive: 79.5% | inactive: 94.9% | inactive: 99.1%
9 | COC(=O)N(C)[N+](=O)[O-] | inactive: 110% | inactive: 99% | inactive: 108% | inactive: 112% |  |  | inactive: 99.4% | inactive: 100% | inactive: 128% | inactive: 118% | inactive: 112% | inactive: 102% | inactive: 109% | inactive: 99.1% | inactive: 125% | inactive: 103% | inactive: 97.3% | inactive: 93.6% | inactive: 99.5% | inactive: 94.6%
10 | COc1cccc([As]=O)c1 (stereo not given) | active: -65% | active: -54.4% | active: -90.2% | active: -40.7% |  |  | active: -70.4% | active: -93.2% | active: -80.3% | active: -76.5% | active: -27.8% | active: -76.2% | active: -94.9% | active: -91.3% | active: -84.1% | active: -89.3% | active: -99.6% | active: -94.6% | active: -93.3% | active: -91.5%
11 | O=C(O)C(=O)c1ccc(N(CCCl)CCCl)cc1 | inactive: 113% |  | inactive: 108% | inactive: 112% | inactive: 101% | inactive: 88.8% | inactive: 104% | inactive: 104% | inactive: 116% | inactive: 110% | inactive: 89.9% | inactive: 90.9% | inactive: 107% | inactive: 113% | inactive: 101% | inactive: 103% | inactive: 97.4% | inactive: 101% | inactive: 102% | inactive: 104%
12 | ClCC1CS1 (stereo not given) | inactive: 107% | inactive: 102% | inactive: 103% | inactive: 105% |  |  | inactive: 107% | inactive: 98.7% | inactive: 111% | inactive: 103% | inactive: 102% | inactive: 96.4% | inactive: 110% | inactive: 107% | inactive: 101% | inactive: 96.7% | inactive: 107% | inactive: 110% | inactive: 100% | inactive: 87.4%
13 | CSc1ccc(Nc2c([N+](=O)[O-])cc([N+](=O)[O-])cc2[N+](=O)[O-])cc1 | inactive: 79.4% | inactive: 43.5% |  | inactive: 58.6% |  | inactive: 15.4% | inactive: 71% | inactive: 77.8% | inactive: 32% | inactive: 92.3% | inactive: 26.2% | inactive: 82.5% | inactive: 66.6% | inactive: 64.9% | inactive: 50.7% |  | inactive: 86.8% | inactive: 47% | inactive: 99.3% | inactive: 87.6%
14 | COC(=O)C1(C)COP(=O)(Nc2ccccc2)OC1 (stereo not given) | inactive: 99.6% | inactive: 113% |  | inactive: 105% |  | inactive: 88.6% | inactive: 107% | inactive: 97.3% | inactive: 113% | inactive: 105% | inactive: 75.7% | inactive: 92.5% | inactive: 108% | inactive: 104% | inactive: 103% | inactive: 98.3% | inactive: 112% | inactive: 109% | inactive: 95.8% | inactive: 97.6%
15 | Cc1ccc(S(=O)(=O)N(CCCN)CCCc2c(C)nc(N)[nH]c2=O)cc1 | inactive: 98.9% |  | inactive: 99.1% | inactive: 104% | inactive: 87.4% | inactive: 95.7% | inactive: 103% | inactive: 99.4% | inactive: 110% | inactive: 109% | inactive: 95.9% | inactive: 113% | inactive: 108% | inactive: 101% | inactive: 98.7% | inactive: 100% | inactive: 96% | inactive: 101% | inactive: 100% | inactive: 92.7%
16 | NNc1ccc([N+](=O)[O-])cc1[N+](=O)[O-] | inactive: 108% | inactive: 106% | inactive: 100% | inactive: 107% |  |  | inactive: 95.4% | inactive: 97.3% | inactive: 100% | inactive: 103% | inactive: 77.2% | inactive: 99.8% | inactive: 94.5% |  | inactive: 93.3% | inactive: 102% | inactive: 102% | inactive: 115% | inactive: 105% | inactive: 100%
17 | O=P1(N(CCCl)CCCl)NCCC(C(F)(F)F)O1 (stereo not given) | inactive: 99.7% |  | inactive: 99.8% | inactive: 94.1% | inactive: 93.6% | inactive: 99.2% | inactive: 98.1% | inactive: 101% | inactive: 103% | inactive: 99.3% | inactive: 119% | inactive: 88.3% | inactive: 99.3% | inactive: 143% | inactive: 101% | inactive: 101% | inactive: 96.1% | inactive: 103% | inactive: 94.7% | inactive: 111%
18 | NC(=O)Nc1ccc([As](=O)(O)O)cc1 | inactive: 103% | inactive: 113% |  | inactive: 110% | inactive: 102% |  | inactive: 98.8% | inactive: 103% | inactive: 110% | inactive: 121% |  | inactive: 109% | inactive: 109% | inactive: 113% | inactive: 114% | inactive: 98.2% | inactive: 105% | inactive: 103% | inactive: 109% | 
19 | O=P(O)(O)F |  | inactive: 102% | inactive: 105% | inactive: 109% | inactive: 98.6% | inactive: 102% | inactive: 97.3% | inactive: 107% | inactive: 132% |  |  | inactive: 100% | inactive: 103% | inactive: 111% | inactive: 105% | inactive: 93.6% | inactive: 116% | inactive: 95.9% | inactive: 111% | inactive: 103%
